From PubChem BioAssay AID504357 (The Scripps Research Institute Molecular Screening Center, 2011)
Only a part is listed here, and it is no random draw. The source made the active and inactive calls. No stated cut-off is given here; in the data, active means inhibition above about 22% (passing the limit was not always enough); inactive means the rest.

Chains of the proteins cited; added tags and fusions are not shown.
UniProt P35372, whole entry, looked up: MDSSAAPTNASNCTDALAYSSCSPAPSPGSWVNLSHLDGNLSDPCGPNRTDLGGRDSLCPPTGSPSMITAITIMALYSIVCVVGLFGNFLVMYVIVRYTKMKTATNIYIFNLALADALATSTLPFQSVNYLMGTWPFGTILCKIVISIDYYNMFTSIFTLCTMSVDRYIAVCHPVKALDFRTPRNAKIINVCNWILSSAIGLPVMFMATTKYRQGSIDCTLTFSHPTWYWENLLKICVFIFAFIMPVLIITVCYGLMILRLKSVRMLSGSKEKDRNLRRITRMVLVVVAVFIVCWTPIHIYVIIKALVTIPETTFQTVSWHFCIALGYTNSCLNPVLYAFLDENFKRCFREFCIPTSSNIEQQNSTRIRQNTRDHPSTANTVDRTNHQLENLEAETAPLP
UniProt P41143, whole entry, looked up: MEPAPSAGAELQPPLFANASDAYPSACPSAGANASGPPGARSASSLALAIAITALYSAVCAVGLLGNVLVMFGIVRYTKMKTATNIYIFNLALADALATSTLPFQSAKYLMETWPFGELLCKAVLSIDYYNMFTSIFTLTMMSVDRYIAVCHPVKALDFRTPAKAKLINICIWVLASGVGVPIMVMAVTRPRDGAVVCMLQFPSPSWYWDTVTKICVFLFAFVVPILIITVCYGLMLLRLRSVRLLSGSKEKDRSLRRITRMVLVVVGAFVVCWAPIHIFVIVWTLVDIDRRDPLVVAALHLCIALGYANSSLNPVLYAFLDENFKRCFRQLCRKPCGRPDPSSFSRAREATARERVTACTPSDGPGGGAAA

The compounds below were run against Mu-type opioid receptor (Homo sapiens) + Delta-type opioid receptor (Homo sapiens) (UniProt P35372+P41143) (assay: OPRM1-OPRD1 heterodimer inverse agonism – cell-based, luminescence, primary screen (AID 504357;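 further: 0% = cells with DMSO and 100% = wells without cells with DMSO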)). Conditions: cell-based MOR-DOR heterodimer luminescence, at 9.3 µM, active compounds read high.

Compound	inhibition
Cc1ccc2c(c1)C1CN(C)CCC1N2C(=O)c1ccccc1NS(=O)(=O)c1ccc(F)cc1C (centres undefined)	inactive: -0.02%
O=P1(Nc2ccc(Br)cn2)COc2ccccc2OC1	inactive: 6.34%
NS(=O)(=O)c1cccc(NC(=O)COC(=O)C(O)(c2ccccc2)c2ccccc2)c1	inactive: 3.34%
Cc1cc(NC(=O)Cn2cnc3c2c(=O)n(C)c(=O)n3C)n(-c2ccccc2)n1	inactive: 0.81%
O=C(NCCn1c(-c2ccncc2)nc2ccccc21)[C@H]1CCCN1c1nc(CN2CCCCC2)cs1	inactive: -1.68%
CC(C)N(C(=O)Cn1c(SCC(=O)NCc2ccc3c(c2)OCO3)nc2ccccc21)C(C)C	inactive: 15.7%
O=C1CC(N2CCC(n3c(=O)[nH]c4ccccc43)CC2)C(=O)N1c1ccc(F)cc1 (centres undefined)	inactive: 10.8%
CC(c1ccccc1)N1CCn2c(nc3cc(NC(=O)c4cccs4)ccc32)C1 (centres undefined)	inactive: 7.82%
CN(C)CCn1cnc2c1c(=O)[nH]c(=O)n2Cc1ccccc1	inactive: 10.9%
O=S(=O)(Nc1ccc2c(c1)nc1n2CCN(Cc2ccccc2)C1)c1ccc(Cl)cc1	inactive: -0.26%
O=C(Cn1cnc2ccccc21)N/N=C/c1cccs1	inactive: 0.33%
CCc1ccccc1NC(=O)CSc1nc2ccccc2n1CC(=O)N(C)C	inactive: 18.8%
N=c1n(CCN2CCOCC2)c2ccccc2n1Cc1ccccc1Br	inactive: 20%
Cc1ccc2c(c1)C1CN(C)CCC1N2C(=O)/C(C#N)=C/c1ccc2c(c1)OCO2 (centres undefined)	inactive: 2.18%
COC(=O)CSc1nc2ccccc2n1CC(=O)N(C(C)C)C(C)C	inactive: 6.47%
Cc1ccc2c(c1)C1CN(C)CCC1N2C(=O)c1ccc(Br)o1 (centres undefined)	inactive: 6.5%
CCN(CC)C(=O)N1CCn2c(nc3ccccc32)C1	inactive: 2.41%
Cn1c(=O)[nH]c(=O)c2c1nc(N1CCOCC1)n2CCN1CCOCC1	inactive: 17.6%
O=P1(Nc2ncccn2)COc2ccccc2OC1	inactive: 0.03%
NNC(=O)Cn1c(COc2ccc(Cl)cc2)nc2ccccc21	inactive: -23.5%
NC(=O)CC(NC(=O)Cc1cccc2ccccc12)c1ccc(NC2CCN(Cc3ccccc3)CC2)c([N+](=O)[O-])c1 (centres undefined)	inactive: 1.44%
N=c1n(CCN2CCOCC2)c2ccccc2n1CC(O)COc1ccccc1 (centres undefined)	inactive: 20.6%
COC(CNC(=O)CC1C(=O)N(Cc2ccccc2)C(C)c2nc3ccccc3n21)OC (centres undefined)	inactive: 9.47%

Compound	inhibition
COC(=O)[C@@H](Cc1ccccc1)NC(=O)Cn1cnc2c(SC)nc(N)nc21	inactive: 13%
Fc1ccc2c(c1)nnn2C1CCN(Cc2nnnn2C2CCCCC2)CC1	inactive: 3.62%
Cc1nc2ccccc2n1CC(=O)NCc1ccccc1	inactive: 1.64%
CCOC(=O)C1CCN(C(=O)CC2C(=O)N(Cc3ccccc3)C(C)c3nc4ccccc4n32)CC1 (centres undefined)	inactive: 21.1%
Cn1c(=O)c2c(ncn2CC(=O)N/N=C/c2cn[nH]c2-c2ccc(F)cc2)n(C)c1=O	inactive: -2.36%
Cn1c(=O)c2c(ncn2CC(=O)N/N=C/C=C/c2ccco2)n(C)c1=O	inactive: 15.8%
CCOC(=O)CNC(=S)N1CCn2c(nc3ccccc32)C1	inactive: 15.9%
CC(C)Sc1nc2ccccc2n1CC(=O)NCc1ccc2c(c1)OCO2	inactive: 1.11%
Cn1c(=O)n(Cc2ccc(F)cc2)c(=O)c2c1nc1n2CCN1Cc1ccco1	inactive: -6.67%
COc1cccc(C(=O)CSc2nc3ccccc3n2CC(=O)N(C(C)C)C(C)C)c1	inactive: 15.5%
Nc1ccccc1[As](=O)(O)c1ccccc1	inactive: 10%
O=C(O)COc1ccc([As](=O)(O)O)cc1[N+](=O)[O-]	inactive: 5.63%
O=C(Cn1cnc2ccccc21)N/N=C/c1ccc([N+](=O)[O-])cc1	inactive: -31.9%
NC(=O)Cn1c(-c2nonc2N)nc2ccccc21	inactive: -1.32%
COCCN1CCn2c(nc3cc(NC(=O)NC4CCCCC4)ccc32)C1	inactive: -6.11%
CCOC(=O)c1ccccc1NC(=O)Cn1cnc2c1c(=O)n(C)c(=O)n2C	inactive: -7.76%
Nc1nonc1-c1nc2ccccc2n1CC(=O)N/N=C/c1ccc(-c2cccc(C(=O)O)c2)o1	inactive: 11.3%
Cc1ccc2c(c1)C1CN(C)CCC1N2C(=O)c1cn(-c2ccccc2)nc1-c1ccccc1 (centres undefined)	inactive: -3.71%
CCc1nc2ccccc2n1CC(=O)Nc1cc(C)on1	inactive: 4.44%
CC(C)c1ccc(NC(=O)C2CC(=O)Nc3nc4ccccc4n32)cc1 (centres undefined)	inactive: 5.08%
O=P(Nc1nccs1)(Oc1ccccc1)Oc1ccccc1	inactive: -2.57%
Cc1ccccc1NC(=O)Cn1c(NCC(C)O)nc2ccccc21 (centres undefined)	inactive: 13%
CCN(CC)CCn1c(C)nc2ccccc21	inactive: 12.8%

Compound	inhibition
Cn1c(=O)c2c(ncn2CC(=O)N2CCN(S(=O)(=O)c3ccc(Cl)cc3)CC2)n(C)c1=O	inactive: -2.29%
Cc1nc2ccccc2n1CC(=O)N/N=C/c1cccnc1	inactive: 7.06%
C/C(=N\NC(=O)Cn1c(-c2ccccn2)nc2ccccc21)c1cccc(O)c1	inactive: 9.41%
CCN1CCC(Nc2ccnc3cc(Cl)ccc23)CC1	inactive: 8.56%
CN(C(=O)Cn1c(Cl)nc2c1c(=O)n(C)c(=O)n2C)C1CCS(=O)(=O)C1 (centres undefined)	inactive: 1.49%
CCOP1(=S)c2c(C)nn(CCC#N)c2N=C(c2ccccc2F)N1C (centres undefined)	inactive: 15.1%
Cn1c(=O)n(CC(=O)Nc2ccc(F)cc2)c2ccccc21	inactive: 5.94%
CCC(C)[C@H](NC(=O)N1CCn2c1nc1ccccc12)C(=O)NCCc1ccc(OC)c(OC)c1 (some centres undefined)	inactive: 6.04%
O=C(Nc1nc2ccccc2n1CCN1CCOCC1)c1ccc(Cn2cc([N+](=O)[O-])cn2)o1	inactive: 8.65%
N#Cc1ccc(NC(=O)Cn2c3[n+](c4ccc(C(F)(F)F)cc42)CCCCC3)cc1	inactive: 8.86%
O=C1NCN(c2ccccc2)C12CCN(c1nnnn1-c1ccccc1)CC2	inactive: -1.61%
CN(C)C(=O)Cn1c(SCC(=O)N2CCCc3ccccc32)nc2ccccc21	inactive: -3.23%
COC(=O)[C@H](CCSC)NC(=O)Cn1cnc2c(SC)nc(N)nc21	inactive: 25%
O=C(Cn1cnc2ccccc21)N1CCc2ccccc21	inactive: -8.98%
CS(=O)(=O)c1cc([N+](=O)[O-])c2no[n+]([O-])c2c1	inactive: -15.7%
Cn1c(=O)c2c(ncn2CC(=O)Nc2ccc3c(c2)OCO3)n(C)c1=O	inactive: -9.45%
Cc1ccc(/C=N\NC(=O)Cn2c(C)nc3ccccc32)o1	inactive: 9.17%
CC(C(O)c1ccccc1)N(C)CCn1cnc2c1c(=O)n(C)c(=O)n2C (centres undefined)	inactive: 16.9%
C[C@H](NC(=O)N1CCn2c1nc1ccccc12)C(=O)NCc1ccc2c(c1)OCO2	inactive: 12.1%
CCN(Cc1ccccc1)C(=O)Cn1cnc2c1c(=O)n(C)c(=O)n2C	inactive: 11.8%
CCN(CC)CCn1c(=N)n(CC(O)COc2ccccc2)c2ccccc21 (centres undefined)	inactive: 10.8%
Fc1ccc2c(c1)nnn2C1CCN(Cc2c(Cl)cccc2Cl)CC1	inactive: -18.2%
CC(C)[C@H](NC(=O)N1CCn2c1nc1ccccc12)C(=O)NCc1ccco1	inactive: 13%

Compound	inhibition
Cn1c(=O)c2c(nc(CN3CCN(c4ccccc4F)CC3)n2CCN2CCOCC2)n(C)c1=O	inactive: 6.56%
CN(C(=O)Cc1ccccc1)[C@@H]1CC[C@]2(CCCO2)C[C@H]1N1CCCC1	inactive: 1.31%
CCOP1(=S)c2c(C)nn(CCC#N)c2N=C(c2ccc(F)cc2)N1C (centres undefined)	inactive: -0.85%
O=C(Nc1ccccc1)N1CCn2c1nc1ccccc12	inactive: -8.37%
N#CCCN(C(=O)COC(=O)C(O)(c1ccccc1)c1ccccc1)c1ccc(F)cc1	inactive: 7.25%
O=C(Cn1cnc2ccccc21)N/N=C/c1ccccc1[N+](=O)[O-]	inactive: 8.18%
O=C(CSc1nc2ccccc2n1CC(=O)N1CCCC1)Nc1nccs1	inactive: 14.5%
CCOC(=O)c1ccc(N2C(=O)CC(N3CCC(Nc4ccc(F)cc4)CC3)C2=O)cc1 (centres undefined)	inactive: 9.1%
COc1ccc(CNC(=O)[C@H](CCSC)NC(=O)N2CCn3c2nc2ccccc23)cc1	inactive: 7.69%
Cc1ccc2c(c1)C1CN(C)CCC1N2C(=S)NC(=O)c1ccc(Br)cc1 (centres undefined)	inactive: 25.3%
CCc1cccc(C)c1NC(=O)Cn1c(NCCO)nc2ccccc21	inactive: 10.3%
CN(C(=O)Cc1ccc(Cl)c(Cl)c1)[C@H]1CC[C@@]2(CCCO2)C[C@@H]1N1CCCC1	inactive: -255%
CC(C)CN(C(=O)Cn1c(C(F)(F)F)nc2ccccc21)C1CCS(=O)(=O)C1 (centres undefined)	inactive: 4.98%
O=[N+]([O-])c1ccc2c(c1)nnn2O	inactive: 0.1%
CC1CCCCN1C(=O)Cn1cnc2c1c(=O)n(C)c(=O)n2C (centres undefined)	inactive: 8.46%
CN(C)C(=O)c1cc([N+](=O)[O-])cc2c1-c1c(cc([N+](=O)[O-])cc1[N+](=O)[O-])C2=O	inactive: -59.1%
CCC(C)[C@H](NC(=O)N1CCn2c1nc1ccccc12)C(=O)NCc1ccc(OC)cc1 (some centres undefined)	inactive: -13.5%
Cn1c(=O)[nH]c(=O)c2c1ncn2CCN1CCOCC1	inactive: 1.65%
CCC(C)NC(=O)Cn1c(COc2ccc(Cl)cc2Cl)nc2ccccc21 (centres undefined)	inactive: -11.8%
Cc1ccc(C(=O)Nc2nc3ccccc3n2CCN2CCCC2)cc1	inactive: -17.4%
